Patent US12290596B2, “Compositions and methods for the treatment of opioid overdose” (priority 2021, dated 2025)

Assay: clinical
Details: human, plasma, im, 1 mg, Vz/F, Treatment B: IM 1.0 mg nalmefene hydrochloride, Median, n=68

C=C1CC[C@@]2(O)[C@H]3Cc4ccc(O)c5c4[C@@]2(CCN3CC2CC2)[C@H]1O5 [Nalmefene, 17-cyclopropylmethyl-4,5α-epoxy-6-methylenemorphinan-3,14-diol]
Vd/F: 865 L
